Source: US20100173874A1, “Delivery of modulators of glutamate-mediated neurotransmission to the inner ear” (priority 2002, published 2010)
Like-named read-outs stand apart in the source and are kept apart here.

Test system: inner ear
Details: 120 dB SPL, 6 kHz, 30 min, 2 days after exposure
Experimental: Experiments were performed on adult guinea pigs weighing from about 250 g to 300 g. The animals were anaesthetized with urethane (1.4 g/kg, i.p.) and artificially respired. Supplemental doses of urethane (0.35 g/kg, i.p.) were administered every 2 hr, or more often if the animal withdrew its paw in response to pressure applied to the paw. The rectal temperature was maintained at about 38.5±1° C., and heart rate (normal range 260-330 beats/min) monitored using EKG electrodes. The external auditory canal was opened near the tympanic annulus, exposing the tympanic membrane and allowing sound to reach the drum without any obstruction. At the end of the experiment, the animals were euthanized by intracardiac injection of an overdose of sodium pentobarbitone.

Compound: Nc1nc2ccc(OC(F)(F)F)cc2s1 [Riluzole]
- CAP threshold shift after noise trauma (protection) (100 μM applied into the cochlea): a clear recovery of threshold was observed
- CAP threshold shift after noise trauma (protection) (100 μM applied onto the round window): The same effect was obtained
